The values that follow come from patent US11883398B2, “Dipeptidylpeptidase 4 inhibition enhances lymphocyte trafficking, improving both naturally occurring tumor immunity and immunotherapy” (INSTITUT PASTEUR, priority 2015, dated 2024).

Where only a bound is given, the exact number is not on record here.

In one test the test system is DPP4. The text has this: WT C57BL/6 CD45.2 Thy1.2 and BALB/c mice were obtained from Charles Rivers, France. WT C57BL/6 CD45.1, Rag2^−/−, Cxcr3^−/−, Ifnar1^−/−Dpp4^+/−, Dpp4^−/−, Cxcl10^−/−, Ccr5^−/−, Pmel-1 Thy-1.1^+Thy-1.1^+, OT1 and FVB-Tg(CAG-luc) mice were bred in our mouse facility. […] Mice were maintained in a specific pathogen free facility and all experimental protocols were approved by the Comité d'Ethique pour l'Expérimentation Animale (The ethics committee for animal experimentation) Paris.

Another test has as its system mCXCL10. Particulars: CpG-A intravenously, sitagliptin vs control. As for the experimental part:
Plates were washed twice with 300 μL of PBS. Blocking was done with BSA 1% (proteinase free, Gibco), in PBS for 2h at room temperature. Plates were washed 3 times with 300 μL of 0.05% Tween-20 in PBS. Tumor and plasma samples were diluted in BSA 1% and incubated for 2h, at room temperature. To obtain a standard curve, and to control for the cross-reactivity of the detection antibody, dilutions of recombinant mCXCL10 (Peprotech) or DPP4-digested mCXCL10(3-77) were incubated in parallel. For detection of mCXCL10(1-77), biotinylated α-mCXCL10(1-77) (AbDSerotec, 0.5 μg/ml, clone AbD17185.1), Streptavidin-HRP (BD Biosciences) and 1-STEP ULTRA TMB (Thermo Scientific) were used.
Enzymatic reactions were stopped with HCL 1N and plates were read with 450 nm in a Lab-systems […] MS (Thermo) reader. […] Detection of mDPP4, mCCL22 and mCXCL12 was done with the DUOSET® ELISA kit (R&D). Detection of mVEGF, mCCL2 and mCCL3 was done with a multiplex kit (Invitrogen).

Test [1] deals with DPP8/9 over-expressing cells. The settings on record: Huan et al. 2015; cited from earlier work.

Turning to `N[C@@H](CC(=O)N1CCn2c(nnc2C(F)(F)F)C1)Cc1cc(F)c(F)cc1F` [sitagliptin], the “DPP4 enzymatic activity in melanoma tumors extracted from mice” value in the test with DPP4 (B16F10 tumor homogenates, sitagliptin vs control chow) is reported as “reduced DPP4 enzymatic activity”. In addition, in the test on DPP4 (WT mice, chow containing 1.1% sitagliptin, plasma 24h after initiation of treatment), the “inhibition of in vivo DPP4 enzymatic activity” value was over 80%. Besides, the “DPP4 activity in the peritoneal cavity” value in the test on DPP4 (peritoneal lavage, sitagliptin vs control chow) is on record as “significantly inhibited”. In the test on mCXCL10, the “plasma concentration of mCCL3” value is listed as “not significantly different” and the “plasma concentration of mCCL22” value is “significant decrease”. Further, in test [1], the “selectivity for DPP4 over DPP8 and 9” value is given as “highly-selective inhibitors of DPP4”.
